Data set [1] is described as follows: Phase solubility for arginine and meglumine.
The nature of data set [2]: Solubility enhancement with acidic and basic in situ salt formers (~0.16 M).

As to `CNC[C@H](O)[C@@H](O)[C@H](O)[C@H](O)CO` [Meglumine, 1-deoxy-1-(methylamino)-D-glucitol], the “parts of salt former required to dissolve 1 part of HDACi (PXD-101)” value in data set [1] was “approximately 1.6 parts”. In data set [1] (basic salt ×0.5, 0.079 M), the “pH of saturated HDACi solution” value was determined as 9.22. Besides, the “pH of Solution” value in data set [2] (PXD-101 in basic in situ salt former) was determined as 9.22.

As for `CS(=O)(=O)O` [Methanesulphonic Acid], the “pH of Solution” value in data set [2] (PXD-101 in acidic in situ salt former) came to 1.35.

For the origin of these results see US8835501B2, “Pharmaceutical formulations of HDAC inhibitors” (TopoTarget UK Limited, priority 2005, dated 2014).
